Source: PubChem BioAssay
An excerpt weighted towards active compounds, which were near 16% of everything screened.
TDP1 cell noCPT – qHTS for Inhibitors of human tyrosyl-DNA phosphodiesterase 1 (TDP1): qHTS in cells in absence of CPT; Potency, µM (doses to about 46.2 µM), for inactives: top-dose activity change, negative = growth inhibition, usual class: inhibitors; DT40 Tdp1-/- hTDP1 cells, no CPT, ATP luminescence, 48 h; hit rate 15% among 420,000; further: potency means the concentration at half of the fitted maximal effect; on the % scale 0 is the no-effect control and ±100 the full control effect; nearly all actives have a fitted effect of over 55% in size
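No-CPT arm: Tdp1-/-;hTDP1 DT40 cells (400/well) plus compounds, incubated ≥48 hr at 37 °C. Readout CellTiter-Glo luminescence.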
miR-21 reporter – raises the signal of a miR-21 reporter | HeLa miR-21 FLuc reporter, luciferase, 48 h | Potency, µM (highest dose often 38.3 µM), for inactives: at the highest dose reporter change, positive = more light | 340,000 tested, under 10 active | AID 2288; active = well fitted rising curve with a large enough effect; inconclusive = small, poorly fitted or top-dose-only effect; inactive = no such curve, though single readings can be large or run the other way;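 also: % of control where 0% means no effect; miR-21 action dims this reporter so a rising signal means less miR-21 action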
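HeLa cells stably expressing CMV-driven firefly luciferase with a downstream miR-21 binding sequence, endogenously expressing miR-21, were treated with titrations (up to about 40uM final) for 48 hours at 37 degree Celsius. Luciferase luminescence was read after lysis.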
DT40 TDP1 CPT – growth inhibition of DT40 Tdp1-/-;hTDP1 cells with camptothecin (screen for TDP1 inhibitors). chicken DT40 Tdp1-/-;hTDP1 cells + 20 nM CPT, ATP luminescence, 48 h. hit rate 12% among 420,000. Potency, µM (highest dose often 46.2 µM), inactives show at the highest dose activity change, negative = growth inhibition, most hits filed as inhibitors; further: potency means the concentration at half of the fitted maximal effect; on the % scale 0 is the no-effect control and ±100 the full control effect; nearly all actives have a fitted effect of over 55% in size
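Chicken DT40 Tdp1-/- cells complemented with human TDP1, 400 cells/well, exposed to compounds plus 20 nM camptothecin for at least 48 h at 37 C; viability read as ATP content by CellTiter-Glo luminescence.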
uPA surface inh – cell surface uPA generation inhibition; Potency, µM (top dose mostly 38.3 µM), inactives show at the highest dose activity change, negative = inhibition, most hits filed as inhibitors; hit rate 0.31% among 330,000; AID 540303; cell surface uPA generation assay, qHTS; active means well fitted inhibition curve with a large enough effect; inconclusive means small, poorly fitted or top-dose-only effect; inactive means no such curve, though single readings can be large or run the other way; tested in mouse RAW 264.7 cells; further: potency means the concentration at half of the fitted maximal effect; on the % scale 0 is the no-effect control and ±100 the full control effect; nearly all actives have a fitted effect of over 55% in size
TDP1 block – TDP1 (human) enzyme inhibition. Q9NUW8. recombinant TDP1, AlphaScreen DNA substrate cleavage. Potency, µM (titrated, usually from 130 µM), inactives show at the highest dose activity change, negative = inhibition, actives largely listed as inhibitors. hit rate 0.28% among 350,000; further: potency means the concentration at half of the fitted maximal effect; on the % scale 0 is the no-effect control and ±100 the full control effect; nearly all actives have a fitted effect of over 40% in size
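AlphaScreen read-out: signal falls as enzyme removes the 3' tyrosine-FITC from a 5'-biotinylated DNA oligo (15 nM, 5 min, RT). Enzyme was E. coli-made recombinant Tdp1 at 1 nM, exposed to compound for 15 min beforehand; beads 10 ug/ml, 10 min.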
An asterisk follows results filed as active; [ ] = dose if it differs, or a comment. Unless noted, the call rests on the fitted dose curve; in most records, active means well fitted curve in the direction sought with a large enough effect; inconclusive means small, poorly fitted or top-dose-only effect, or another doubt; inactive means no such curve, though single readings can be large; an effect the other way counts as inactive or inconclusive.

Results for Cc1oc(/N=C/c2ccc(F)cc2)c(C#N)c1C ?
TDP1 cell noCPT: -4%; miR-21 reporter: 4%; DT40 TDP1 CPT: -20%; uPA surface inh: -2%

What do the screens show for `CN(C)S(=O)(=O)c1cc(NC(=O)CN2CCN(c3ccccc3O)CC2)ccc1Cl`?
TDP1 cell noCPT: inconclusive; miR-21 reporter: 10%; DT40 TDP1 CPT: inconclusive; uPA surface inh: -6%; TDP1 block: 4%

Results for Clc1cccc(CNc2ccn3nc(-c4ccc(OCc5ccccc5)cc4)cc3n2)c1 ?
TDP1 cell noCPT: inconclusive; DT40 TDP1 CPT: 16µM*

Results for COc1ccc(-c2ccc(=O)n(Cc3cccc(Cl)c3)n2)cc1 ?
TDP1 cell noCPT: inconclusive; miR-21 reporter: -9%; DT40 TDP1 CPT: inconclusive; uPA surface inh: -17%

What do the screens show for `C[C@H](NC(=O)N1CCn2c1nc1ccccc12)C(=O)N1CCCCC1`?
TDP1 cell noCPT: inconclusive; miR-21 reporter: -7%; DT40 TDP1 CPT: 16µM*; uPA surface inh: -4%; TDP1 block: 1%

Results for N#Cc1ccc(N2CCOCC2)c([N+](=O)[O-])c1 ?
TDP1 cell noCPT: -25%; miR-21 reporter: -7%; DT40 TDP1 CPT: -16%; uPA surface inh: 4%; TDP1 block: 7%

Results for O=C(c1ccccc1)c1ccc(OCCCN2CCCCC2)cc1 ?
TDP1 cell noCPT: -23%; miR-21 reporter: -1%; DT40 TDP1 CPT: -16%; uPA surface inh: 0%; TDP1 block: -7%

What do the screens show for `CC(C)[C@H](N)C(=O)NC[C@H]1O[C@@H](n2cnc3c(N)ncnc32)[C@H](O)[C@@H]1O`?
TDP1 cell noCPT: -9%; DT40 TDP1 CPT: -8%; uPA surface inh: -4%; TDP1 block: -1%[56.1 µM]

What do the screens show for `CC(C)CSCC1OC(n2cnc3c(N)nccc32)C(O)C1O` (stereo unspecified)?
TDP1 cell noCPT: 21µM*; DT40 TDP1 CPT: inconclusive

Results for CCCn1c(SCC(=O)NC2CC2)nnc1-c1cccs1 ?
TDP1 cell noCPT: 22%; miR-21 reporter: -3%; DT40 TDP1 CPT: 0%; uPA surface inh: 4%; TDP1 block: 2%

What do the screens show for `Nc1ccc(N2CCCC2)c(S(=O)(=O)Nc2cccc(C(F)(F)F)c2)c1`?
TDP1 cell noCPT: 29µM*; DT40 TDP1 CPT: inconclusive; uPA surface inh: 1%; TDP1 block: 7%

What do the screens show for `O=C(c1ccc(S(=O)(=O)Nc2cccc(C(F)(F)F)c2)cc1)N1CCN(c2ccccc2O)CC1`?
TDP1 cell noCPT: 23µM*; DT40 TDP1 CPT: inconclusive; uPA surface inh: 0%; TDP1 block: 4%

How did O=C(c1cc2c(s1)CCCC2)N1CCN(CCO)CC1 do in these assays?
TDP1 cell noCPT: -14%; DT40 TDP1 CPT: -13%; uPA surface inh: -2%; TDP1 block: 3%

Results for CC[C@@H](CC1CCCCC1)C(=O)N(Cc1ccccc1)c1ccccc1 ?
TDP1 cell noCPT: 4.1µM*; DT40 TDP1 CPT: 4.6µM*; uPA surface inh: -3%; TDP1 block: -20%

Results for CN(Cc1ccccc1)C(=O)NC1CCCCC1 ?
TDP1 cell noCPT: 7%; miR-21 reporter: -15%; DT40 TDP1 CPT: -5%; TDP1 block: 7%

How did CCCCN(C(=O)c1cccc2c(=O)c(C)c(-c3ccccc3)oc12)c1ccccc1 do in these assays?
TDP1 cell noCPT: 8.2µM*; miR-21 reporter: inconclusive; DT40 TDP1 CPT: 16µM*; uPA surface inh: -18%; TDP1 block: 3%

Results for COc1cccc2cc(C(=O)N3CCN(c4ccccc4F)CC3)c(=O)oc12 ?
TDP1 cell noCPT: 12%; miR-21 reporter: 0%; DT40 TDP1 CPT: -8%; uPA surface inh: -1%; TDP1 block: 7%

Results for CCCCNC(=O)c1cccc2c(=O)c(C)c(-c3ccccc3)oc12 ?
TDP1 cell noCPT: inconclusive; miR-21 reporter: -4%; DT40 TDP1 CPT: inconclusive; uPA surface inh: -10%; TDP1 block: 3%

Results for Cc1c(-c2ccccc2)oc2c(C(=O)N3CCN(c4ccccc4F)CC3)cccc2c1=O ?
TDP1 cell noCPT: 21µM*; miR-21 reporter: -3%; DT40 TDP1 CPT: 21µM*; uPA surface inh: 6%; TDP1 block: -3%

What do the screens show for `COc1cc(OC)c(OC)cc1CN(C)CC1CCCN(CCc2ccccc2F)C1` (stereo unspecified)?
TDP1 cell noCPT: inconclusive; miR-21 reporter: -8%; DT40 TDP1 CPT: 15µM*; uPA surface inh: -1%; TDP1 block: 2%

Ordered by number of heavy atoms (largest number first): some entries from above
What do the screens show for `O=C(c1ccc(S(=O)(=O)Nc2cccc(C(F)(F)F)c2)cc1)N1CCN(c2ccccc2O)CC1`?
TDP1 cell noCPT: 23µM*; DT40 TDP1 CPT: inconclusive; uPA surface inh: 0%; TDP1 block: 4%

What do the screens show for `COc1cc(OC)c(OC)cc1CN(C)CC1CCCN(CCc2ccccc2F)C1` (stereo unspecified)?
TDP1 cell noCPT: inconclusive; miR-21 reporter: -8%; DT40 TDP1 CPT: 15µM*; uPA surface inh: -1%; TDP1 block: 2%

Results for CC[C@@H](CC1CCCCC1)C(=O)N(Cc1ccccc1)c1ccccc1 ?
TDP1 cell noCPT: 4.1µM*; DT40 TDP1 CPT: 4.6µM*; uPA surface inh: -3%; TDP1 block: -20%

(continued)
How did COc1cccc(CN(C)CC2CCCN(CCc3ccccc3C)C2)c1 (stereo unspecified) do in these assays?
TDP1 cell noCPT: 18µM*; miR-21 reporter: 2%; DT40 TDP1 CPT: inconclusive; uPA surface inh: -24%

What do the screens show for `CC(=O)Nc1ccc(CN(C)CC2CCCN(CCc3cccc(C(F)(F)F)c3)C2)cc1` (stereo unspecified)?
TDP1 cell noCPT: inconclusive; miR-21 reporter: -1%; DT40 TDP1 CPT: 13µM*; uPA surface inh: 2%; TDP1 block: 2%

Results for CCN(Cc1cccc(OC)c1)CC1CCCN(CCc2cccc(OC)c2)C1 (stereo unspecified) ?
TDP1 cell noCPT: inconclusive; miR-21 reporter: 1%; DT40 TDP1 CPT: 15µM*; uPA surface inh: -1%

Results for CC(=O)Nc1ccc(N2C(=O)CSC2c2cccc([N+](=O)[O-])c2)cc1 (stereo unspecified) ?
TDP1 cell noCPT: -14%; miR-21 reporter: -5%; DT40 TDP1 CPT: 13%; uPA surface inh: -1%; TDP1 block: 0%

Results for Cc1ccc(CNC(=O)/C=C/C(=O)O)cc1 ?
TDP1 cell noCPT: -1%; miR-21 reporter: 1%; DT40 TDP1 CPT: -5%; uPA surface inh: 1%; TDP1 block: 7%

What do the screens show for `CC(c1ccccc1)C1CC(=O)N(c2ccccc2)C1=O` (stereo unspecified)?
TDP1 cell noCPT: 3%; miR-21 reporter: 3%; DT40 TDP1 CPT: 1%; uPA surface inh: 0%

What do the screens show for `COC(=O)c1ccc(N2OC3(C)C=CC2CC3)cc1` (stereo unspecified)?
TDP1 cell noCPT: -2%; miR-21 reporter: -65%; DT40 TDP1 CPT: 0%; uPA surface inh: -5%; TDP1 block: 6%

How did CCN(CC1CCCN(CCc2cccc(F)c2)C1)C(=O)c1ccc(CSC)o1 (stereo unspecified) do in these assays?
TDP1 cell noCPT: 23µM*; miR-21 reporter: -1%; DT40 TDP1 CPT: inconclusive; uPA surface inh: -29%; TDP1 block: 5%[56.1 µM]

How did CCN(CC1CCCN(CCc2cccc(OC)c2)C1)C(=O)C=C(C)C (stereo unspecified) do in these assays?
TDP1 cell noCPT: 0%; miR-21 reporter: 2%; DT40 TDP1 CPT: -9%; uPA surface inh: 15%
